Set-up: species or system BALB/c mice
Settings: female, BALB/c, mouse, in vivo, 25 mg/kg, 1 h
Protocol: All procedures involving mice were approved by the Animal Care and Use Committee of Johns Hopkins University. T405 was dissolved in PBS. Uninfected female BALB/c mice, aged 6–7 weeks, were administered a single 25 mg/kg dose of T405 in 100 µL subcutaneously, either alone or in combination with probenecid (250 mg/kg) or cilastatin (25 mg/kg). Blood was sampled from three mice per group per time point by mandibular vein puncture or cardiac puncture at the following time points: 5, 15, 30, 60, 120, and 240 min post-dose. Plasma was separated in heparin-containing tubes and frozen. T405 concentrations in plasma were determined using a validated LC/MS-MS method developed in the Analytical Pharmacology Core of the Sidney Kimmel Comprehensive Cancer Center at Johns Hopkins University School of Medicine. Concentration–time data were analyzed by standard non-compartmental and compartmental techniques using WinNonlin (version 7.0; Pharsight, Mountain View, CA). A one-compartmental model was used to perform simulations to predict the plasma concentration–time profile after subcutaneous doses of 150, 300, and 450 mg/kg, alone and in combination with probenecid. A plasma free drug fraction of 2% of the total drug concentration was included in the simulations.

**Q.** For `C[C@@H](O)C1C(=O)N2C(C(=O)O)=C(SC3CN(C4=NCCS4)C3)SC12` (stereo in doubt) [T405], which “T405 concentration in blood” value is on record?
**A.** 65.6 ng/mL

From article PMC7721803, “Development of a penem antibiotic against Mycobacteroides abscessus” (Communications Biology, 2020)
